Laboratory results taken from paper PMC7926627, “Fine-Tuning the Biological Profile of Multitarget Mitochondriotropic Antioxidants for Neurodegenerative Diseases” (Antioxidants, 2021).

Chains of the proteins cited; added tags and fusions are not shown. Residues count along the entry.
UniProt O42275, 24-633: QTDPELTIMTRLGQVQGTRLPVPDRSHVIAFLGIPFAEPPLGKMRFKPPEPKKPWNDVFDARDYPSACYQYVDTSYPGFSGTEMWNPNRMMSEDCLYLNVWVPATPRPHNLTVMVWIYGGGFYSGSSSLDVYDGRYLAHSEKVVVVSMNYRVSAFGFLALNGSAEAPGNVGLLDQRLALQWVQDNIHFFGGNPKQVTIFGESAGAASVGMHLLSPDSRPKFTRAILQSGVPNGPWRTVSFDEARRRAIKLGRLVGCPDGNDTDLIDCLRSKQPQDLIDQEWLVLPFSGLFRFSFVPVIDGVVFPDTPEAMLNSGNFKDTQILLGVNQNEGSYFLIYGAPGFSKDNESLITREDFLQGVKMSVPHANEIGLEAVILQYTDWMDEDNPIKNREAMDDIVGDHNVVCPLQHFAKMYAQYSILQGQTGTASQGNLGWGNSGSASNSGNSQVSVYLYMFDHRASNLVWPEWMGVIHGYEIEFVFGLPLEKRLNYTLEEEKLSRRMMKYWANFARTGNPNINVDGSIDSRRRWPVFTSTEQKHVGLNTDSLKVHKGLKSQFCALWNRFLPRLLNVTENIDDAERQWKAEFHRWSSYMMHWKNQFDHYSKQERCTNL
UniProt P81908, whole entry: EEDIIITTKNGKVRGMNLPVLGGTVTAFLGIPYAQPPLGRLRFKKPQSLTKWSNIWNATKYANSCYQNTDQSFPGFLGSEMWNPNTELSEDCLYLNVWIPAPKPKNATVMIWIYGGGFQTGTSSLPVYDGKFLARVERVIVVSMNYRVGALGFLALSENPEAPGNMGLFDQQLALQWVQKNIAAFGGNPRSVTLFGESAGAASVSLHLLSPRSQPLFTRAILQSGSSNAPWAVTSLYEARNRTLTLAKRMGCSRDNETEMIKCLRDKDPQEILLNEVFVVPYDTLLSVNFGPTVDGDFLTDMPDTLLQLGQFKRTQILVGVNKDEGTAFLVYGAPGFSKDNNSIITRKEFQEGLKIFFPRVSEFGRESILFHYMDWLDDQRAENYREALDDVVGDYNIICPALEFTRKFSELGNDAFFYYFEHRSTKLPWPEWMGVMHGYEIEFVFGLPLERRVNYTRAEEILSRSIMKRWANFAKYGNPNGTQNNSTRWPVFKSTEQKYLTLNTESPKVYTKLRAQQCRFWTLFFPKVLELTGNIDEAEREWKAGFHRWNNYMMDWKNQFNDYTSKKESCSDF

How the values were obtained:
[1] = biological target: T1, eeAChE (electric eel acetylcholinesterase) (Electrophorus electricus, UniProt O42275); experiment: eeAChE inhibition, Ellman's method; type: biochemical
T1 construct: Eel acetylcholinesterase (eeAChE, E.C. 3.1.1.7, from Electrophorus electricus); purchased Sigma Aldrich

[2] = biological target: T2, eqBChE (equine butyrylcholinesterase) (Equus caballus, UniProt P81908); experiment: biochemical; type: biochemical
T2 construct: butyrylcholinesterase (eqBuChE, E.C. 3.1.1.8, from equine serum); purchased Sigma Aldrich; host or cells: equine serum

**Q.** Which results are given for `O=C(C=CC=Cc1ccc2c(c1)OCO2)N1CCCCC1` [Compound 1, 1-[5-(1,3-benzodioxol-5-yl)-1-oxo-2,4-pentadienyl]piperidine, reference compound]?
**A.** IC50 [1]: > 10 µM; eeAChE inhibitory activity ([1]; at 10 µM): did not display significant; IC50 [2]: > 10 µM; eqBChE inhibitory activity ([2]; at 10 µM): did not display significant
